{"sequences": {"note": "Amino acid sequences for entries named in this document (tags omitted). A change or cut given only in a name is not applied to a line headed by its entry.", "UniProt P10275": "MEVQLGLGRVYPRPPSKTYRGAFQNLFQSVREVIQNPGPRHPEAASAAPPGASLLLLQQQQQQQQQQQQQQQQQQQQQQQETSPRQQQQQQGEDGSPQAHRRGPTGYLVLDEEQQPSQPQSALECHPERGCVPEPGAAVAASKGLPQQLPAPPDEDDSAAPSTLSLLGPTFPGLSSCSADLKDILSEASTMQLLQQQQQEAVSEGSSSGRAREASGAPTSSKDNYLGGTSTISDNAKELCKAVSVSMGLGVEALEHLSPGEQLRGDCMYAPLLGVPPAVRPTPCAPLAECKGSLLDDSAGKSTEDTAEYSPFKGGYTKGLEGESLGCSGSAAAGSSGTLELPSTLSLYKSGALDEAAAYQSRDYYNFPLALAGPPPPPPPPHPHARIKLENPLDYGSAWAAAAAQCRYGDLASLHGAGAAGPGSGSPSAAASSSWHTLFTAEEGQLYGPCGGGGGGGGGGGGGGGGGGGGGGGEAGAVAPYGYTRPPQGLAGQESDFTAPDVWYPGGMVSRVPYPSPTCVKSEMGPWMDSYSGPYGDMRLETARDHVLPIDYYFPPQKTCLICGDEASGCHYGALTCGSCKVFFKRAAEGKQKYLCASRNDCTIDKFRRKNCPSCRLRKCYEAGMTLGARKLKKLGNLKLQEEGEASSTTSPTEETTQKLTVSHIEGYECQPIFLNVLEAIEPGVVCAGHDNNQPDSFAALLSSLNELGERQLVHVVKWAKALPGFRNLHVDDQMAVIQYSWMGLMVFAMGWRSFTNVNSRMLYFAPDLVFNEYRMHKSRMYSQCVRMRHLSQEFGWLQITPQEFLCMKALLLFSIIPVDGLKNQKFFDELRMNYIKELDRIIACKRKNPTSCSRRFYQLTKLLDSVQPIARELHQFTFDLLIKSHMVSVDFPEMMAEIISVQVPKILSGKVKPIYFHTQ", "UniProt P03372, whole entry, looked up": "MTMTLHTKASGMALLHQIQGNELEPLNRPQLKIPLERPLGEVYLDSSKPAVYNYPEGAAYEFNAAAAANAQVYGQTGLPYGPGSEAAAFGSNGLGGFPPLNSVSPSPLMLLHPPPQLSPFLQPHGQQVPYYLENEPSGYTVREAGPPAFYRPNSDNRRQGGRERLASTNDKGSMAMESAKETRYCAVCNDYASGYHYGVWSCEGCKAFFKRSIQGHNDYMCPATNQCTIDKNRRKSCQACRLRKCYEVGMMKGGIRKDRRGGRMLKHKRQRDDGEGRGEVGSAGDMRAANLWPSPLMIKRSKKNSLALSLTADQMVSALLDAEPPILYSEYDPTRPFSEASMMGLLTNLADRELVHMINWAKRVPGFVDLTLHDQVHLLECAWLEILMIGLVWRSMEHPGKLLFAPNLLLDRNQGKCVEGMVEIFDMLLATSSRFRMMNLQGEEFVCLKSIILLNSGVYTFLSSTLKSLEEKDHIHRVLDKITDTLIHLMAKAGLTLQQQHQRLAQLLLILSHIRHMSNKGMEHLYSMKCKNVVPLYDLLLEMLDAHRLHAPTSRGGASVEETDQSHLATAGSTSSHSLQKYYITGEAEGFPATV", "UniProt Q96RI1": "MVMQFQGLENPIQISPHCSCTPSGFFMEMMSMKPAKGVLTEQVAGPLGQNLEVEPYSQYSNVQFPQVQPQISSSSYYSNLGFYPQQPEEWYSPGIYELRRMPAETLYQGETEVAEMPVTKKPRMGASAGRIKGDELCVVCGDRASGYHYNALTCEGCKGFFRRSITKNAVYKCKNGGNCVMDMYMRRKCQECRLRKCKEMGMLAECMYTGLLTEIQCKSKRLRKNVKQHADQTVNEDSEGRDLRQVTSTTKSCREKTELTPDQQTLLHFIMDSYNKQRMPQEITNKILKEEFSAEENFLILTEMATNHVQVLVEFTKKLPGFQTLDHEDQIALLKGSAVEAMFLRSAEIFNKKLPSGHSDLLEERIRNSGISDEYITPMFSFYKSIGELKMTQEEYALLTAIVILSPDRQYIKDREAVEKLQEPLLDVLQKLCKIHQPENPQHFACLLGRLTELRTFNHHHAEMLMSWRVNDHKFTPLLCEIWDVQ", "UniProt Q92731, whole entry, looked up": "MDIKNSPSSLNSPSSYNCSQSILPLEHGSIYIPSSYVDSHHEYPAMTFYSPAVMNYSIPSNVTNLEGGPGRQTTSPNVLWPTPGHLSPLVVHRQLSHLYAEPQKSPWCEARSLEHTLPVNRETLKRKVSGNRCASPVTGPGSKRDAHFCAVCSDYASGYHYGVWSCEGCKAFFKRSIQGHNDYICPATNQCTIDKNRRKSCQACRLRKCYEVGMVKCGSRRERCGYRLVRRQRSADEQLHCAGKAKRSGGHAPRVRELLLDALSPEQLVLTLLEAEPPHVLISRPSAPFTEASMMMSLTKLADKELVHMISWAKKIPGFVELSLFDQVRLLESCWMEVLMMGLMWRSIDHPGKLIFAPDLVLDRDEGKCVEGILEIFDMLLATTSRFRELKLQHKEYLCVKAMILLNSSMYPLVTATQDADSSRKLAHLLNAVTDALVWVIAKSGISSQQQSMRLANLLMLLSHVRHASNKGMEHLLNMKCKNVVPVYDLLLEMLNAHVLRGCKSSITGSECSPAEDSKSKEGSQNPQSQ", "UniProt P34981": "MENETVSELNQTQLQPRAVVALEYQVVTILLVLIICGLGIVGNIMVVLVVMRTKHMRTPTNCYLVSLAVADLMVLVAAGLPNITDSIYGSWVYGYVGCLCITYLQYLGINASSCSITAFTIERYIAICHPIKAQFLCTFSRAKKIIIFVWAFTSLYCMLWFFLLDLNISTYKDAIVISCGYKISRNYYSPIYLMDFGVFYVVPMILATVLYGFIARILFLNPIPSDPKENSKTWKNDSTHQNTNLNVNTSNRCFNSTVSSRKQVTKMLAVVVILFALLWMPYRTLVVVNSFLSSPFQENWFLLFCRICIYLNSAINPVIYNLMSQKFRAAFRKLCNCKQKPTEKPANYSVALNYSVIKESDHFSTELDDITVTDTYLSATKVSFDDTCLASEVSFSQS", "UniProt O75469": "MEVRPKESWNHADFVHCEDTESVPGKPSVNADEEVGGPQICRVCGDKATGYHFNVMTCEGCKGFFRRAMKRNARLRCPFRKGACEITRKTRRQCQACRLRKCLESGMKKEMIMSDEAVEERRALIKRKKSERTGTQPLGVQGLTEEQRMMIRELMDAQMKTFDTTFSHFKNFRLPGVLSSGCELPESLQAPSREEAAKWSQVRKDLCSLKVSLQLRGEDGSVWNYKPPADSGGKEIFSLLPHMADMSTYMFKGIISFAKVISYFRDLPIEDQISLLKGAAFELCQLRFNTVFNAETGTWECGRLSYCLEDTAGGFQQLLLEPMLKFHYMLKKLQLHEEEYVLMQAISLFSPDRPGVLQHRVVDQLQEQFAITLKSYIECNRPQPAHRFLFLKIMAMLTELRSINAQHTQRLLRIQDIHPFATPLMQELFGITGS"}, "source": "PubChem BioAssay (Tox21)", "key": {"[1]": {"target": "Androgen receptor (Homo sapiens) (UniProt P10275)", "experiment": "qHTS assay to identify small molecule antagonists of the androgen receptor (AR) signaling pathway (AID 743035; active = well fitted inhibition curve with a large enough effect in the signal ratio in the repeat runs, not every such curve was filed as active; inconclusive = weak or mixed curves, or effect the other way; inactive = no such curve, though single readings can be large or run the other way; the % refers to the signal ratio; note: % is set by controls: 0 for no effect and ±100 for the full control effect)"}, "[2]": {"target": "Androgen receptor (Homo sapiens) (UniProt P10275)", "experiment": "qHTS assay to identify small molecule agonists of the androgen receptor (AR) signaling pathway using the MDA cell line (AID 743040; note: % is set by controls: 0 for no effect and ±100 for the full control effect; nearly all actives have a fitted effect of over 20% in size)", "conditions": "MDA-kb2 AR-luc cells, MMTV luciferase, 16 h, hits give high values; at 70.3 µM (top of the series) unless noted"}, "[3]": {"target": "Androgen receptor (Homo sapiens) (UniProt P10275)", "experiment": "qHTS assay to identify small molecule antagonists of the androgen receptor (AR) signaling pathway using the MDA cell line (AID 743042; note: % is set by controls: 0 for no effect and ±100 for the full control effect; nearly all actives have a fitted effect of over 55% in size)"}, "[4]": {"target": "Estrogen receptor (Homo sapiens) (UniProt P03372)", "experiment": "qHTS assay to identify small molecule antagonists of the estrogen receptor alpha (ER-alpha) signaling pathway (AID 743069; active = well fitted curve in the direction sought with a large enough effect in the signal ratio in the repeat runs, not every such curve was filed as active; inconclusive = weak or mixed curves, or effect the other way; inactive = no such curve, though single readings can be large or run the other way; the % refers to the signal ratio; note: % is set by controls: 0 for no effect and ±100 for the full control effect)", "conditions": "HEK293 ER-alpha-UAS-bla, beta-lactamase ratio, antagonist mode"}, "[5]": {"target": "Estrogen receptor (Homo sapiens) (UniProt P03372)", "experiment": "qHTS assay to identify small molecule agonists of the estrogen receptor alpha (ER-alpha) signaling pathway (AID 743075; calls by dose curve; note: potency is the fitted concentration of half-maximal effect)"}, "[6]": {"target": "Androgen receptor (Homo sapiens) (UniProt P10275)", "experiment": "qHTS assay to identify small molecule antagonists of the androgen receptor (AR) signaling pathway using the MDA cell line in the presence of 0.5 nM R1881 (AID 1259243); note: potency is the fitted concentration of half-maximal effect; nearly all actives have a fitted effect of over 50% in size"}, "[7]": {"target": "Androgen receptor (Homo sapiens) (UniProt P10275)", "experiment": "qHTS assay to identify small molecule agonists of the androgen receptor (AR) signaling pathway in the presence of an antagonist (AID 1259381; calls by dose curve; note: % is set by controls: 0 for no effect and ±100 for the full control effect; nearly all actives have a fitted effect of over 15% in size)", "conditions": "MDA-kb2 MMTV-luciferase, AR agonist + nilutamide, 16 h; at 42.5 µM (top of the series)"}, "[8]": {"target": "Estrogen receptor (Homo sapiens) (UniProt P03372)", "experiment": "qHTS assay to identify small molecule agonists of the estrogen receptor alpha (ER-alpha) signaling pathway in the presence of an antagonist (AID 1259383; calls by dose curve; note: top concentration of the series differs between compounds; % is set by controls: 0 for no effect and ±100 for the full control effect; nearly all actives have a fitted effect of over 15% in size)", "conditions": "VM7Luc4E2 cells, ERE-luciferase, +ICI-182,780, 22 h"}, "[9]": {"target": "Bile acid receptor (Homo sapiens) (UniProt Q96RI1)", "experiment": "qHTS assay to identify small molecule agonists of the farnesoid-X-receptor (FXR) signaling pathway (AID 743220; active = well fitted activation curve with a large enough effect in the signal ratio in the repeat runs, not every such curve was filed as active; inconclusive = weak or mixed curves, or effect the other way; the % refers to the signal ratio; note: % is set by controls: 0 for no effect and ±100 for the full control effect)", "conditions": "HEK293T FXR-UAS-bla, beta-lactamase FRET ratio, 16 h; at 62.6 µM (top of the series) unless noted"}, "[10]": {"target": "Estrogen receptor beta (Homo sapiens) (UniProt Q92731)", "experiment": "qHTS assay to identify small molecule antagonists of the estrogen receptor beta (ER-beta) signaling pathway (AID 1259378; active = well fitted inhibition curve with a large enough effect in the signal ratio in the repeat runs, not every such curve was filed as active; inconclusive = weak or mixed curves, or effect the other way; inactive = no such curve, though single readings can be large or run the other way; the % refers to the signal ratio; note: potency is the fitted concentration of half-maximal effect)", "method_in_brief": "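ER-beta-UAS-bla HEK293T (GripTite) cells in 2% charcoal-stripped FBS medium were preincubated 6 hr at 37C, dosed with compound, then stimulated with 1 nM E2 (final) for 16 hr; beta-lactamase reporter read by B/G FRET fluorescence after 2 hr substrate loading.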"}, "[11]": {"target": "Estrogen receptor (Homo sapiens) (UniProt P03372)", "experiment": "qHTS assay to identify small molecule antagonists of the estrogen receptor alpha (ER-alpha) signaling pathway using the BG1 cell line in the presence of 0.1 nM 17-beta-estradiol (AID 1259244); note: % is set by controls: 0 for no effect and ±100 for the full control effect; nearly all actives have a fitted effect of over 50% in size"}, "[12]": {"target": "Thyrotropin-releasing hormone receptor (Homo sapiens) (UniProt P34981)", "experiment": "qHTS assay to identify small molecule antagonists of the thyrotropin-releasing hormone receptor (TRHR) signaling pathway (AID 1346877; active = well fitted inhibition curve with a large enough effect in the repeat runs, not every such curve was filed as active; inconclusive = weak or mixed curves; note: % is set by controls: 0 for no effect and ±100 for the full control effect)", "conditions": "TRHR-HEK293, TRH-induced calcium fluorescence, antagonist mode; at 23.6 µM (top of the series) unless noted"}, "[13]": {"experiment": "qHTS assay to identify small molecule agonists of the estrogen receptor alpha (ER-alpha) signaling pathway in the presence of an antagonist - cell viability counter screen (AID 1259386); note: % is set by controls: 0 for no effect and ±100 for the full control effect; nearly all actives have a fitted effect of over 30% in size", "conditions": "VM7Luc4E2 viability, CellTiter-Fluor fluorescence, 22 h; at 92.4 µM (top of the series)", "method_in_brief": "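Read-out: CellTiter-Fluor fluorescence after 1hr reagent incubation, measured in the same wells as the luciferase readout. VM7Luc4E2 cells were exposed to 15 compound concentrations with 10.0nM ICI-182,780 for 22hr at 37C.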"}, "[14]": {"target": "Estrogen receptor (Homo sapiens) (UniProt P03372)", "experiment": "qHTS assay to identify small molecule agonists of the estrogen receptor alpha (ER-alpha) signaling pathway using the BG1 cell line (AID 743079); note: % is set by controls: 0 for no effect and ±100 for the full control effect; nearly all actives have a fitted effect of over 20% in size", "conditions": "BG1Luc4E2 cells, ERE-luciferase agonist, 22 h; at 32.5 µM (top of the series)"}, "[15]": {"target": "Nuclear receptor subfamily 1 group I member 2 (Homo sapiens) (UniProt O75469)", "experiment": "Human pregnane X receptor (PXR) small molecule agonists, qHTS assay (AID 1346982); note: nearly all actives have a fitted effect of over 35% in size; note: potency is the fitted concentration of half-maximal effect", "method_in_brief": "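HepG2 PXR-Luc reporter line, 5% charcoal-stripped FBS; 5 hr pre-incubation, compound (DMSO) 24 hr at 37 C/5% CO2; ONE-Glo 30 min RT; luminescence read-out.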"}}, "note": "Where “and” joins values, the source holds several entries; their conditions need not be identical. Identical values can stand only once. For part of these data: Shown are results outside the selection of hits, which stands elsewhere. A structure can be active in one record and inactive in another. The list shows a part of the results, in another mix than the full data. Calls of active or inactive are those of the source. Unless noted, calls come from the whole dose curve; as a rule, active = well fitted curve in the direction sought with a large enough effect in the repeat runs; inconclusive = weak or mixed curves; inactive = no such curve, though single readings can be large; an effect the other way counts as inactive or inconclusive."}
{"smiles": "Clc1ccc(CSC(Cn2ccnc2)c2ccc(Cl)cc2Cl)cc1", "note": "(stereo unspecified)", "values": [{"measurement": "Potency", "setting": "[1]", "value": "inactive"}, {"measurement": "activity change", "setting": "[2]", "value": "inactive: -7.75% [at 32.5 µM]"}, {"measurement": "Potency", "setting": "[3]", "value": "inactive"}, {"measurement": "activity, negative = inhibition", "setting": "[4]; at 32.6 µM (top of the series)", "value": "inactive: 14.7%"}, {"measurement": "Potency", "setting": "[5]", "value": "inactive"}, {"measurement": "Potency", "setting": "[6]", "value": "active: 11.9 µM"}, {"measurement": "activation", "setting": "[7]", "value": "inactive: -10.7%"}, {"measurement": "activation", "setting": "[8]; at 42.5 µM (top of the series)", "value": "inactive: -12.8%"}]}
{"smiles": "Clc1ccc(CCC(Cn2ccnc2)Sc2c(Cl)cccc2Cl)cc1", "note": "(stereo unspecified)", "values": [{"measurement": "activity change", "setting": "[2]", "value": "inactive: -5.05% [at 32.5 µM]"}, {"measurement": "Potency", "setting": "[3]", "value": "inactive"}, {"measurement": "activity, negative = inhibition", "setting": "[4]; at 32.6 µM (top of the series)", "value": "inactive: 12.9%"}, {"measurement": "Potency", "setting": "[5]", "value": "inactive"}, {"measurement": "activation", "setting": "[9]", "value": "inactive: 9.91%"}, {"measurement": "Potency", "setting": "[6]", "value": "active: 26.6 µM"}, {"measurement": "activation", "setting": "[7]", "value": "inactive: -8.24%"}, {"measurement": "activation", "setting": "[8]; at 42.5 µM (top of the series)", "value": "inactive: 0.0222%"}]}
{"smiles": "C=CCOC(Cn1ccnc1)c1ccc(Cl)cc1Cl", "note": "(stereo unspecified)", "values": [{"measurement": "Potency", "setting": "[10]", "value": "active: 17.3 µM and active: 23.7 µM"}]}
{"smiles": "C[N+](C)(C)Cc1ccccc1", "values": [{"measurement": "Potency", "setting": "[10]", "value": "inactive"}]}
{"smiles": "CC(CC(C(N)=O)(c1ccccc1)c1ccccc1)N(C)C", "note": "(stereo unspecified)", "values": [{"measurement": "Potency", "setting": "[11]", "value": "inactive"}, {"measurement": "Potency", "setting": "[10]", "value": "inactive"}, {"measurement": "activation", "setting": "[8]; at 42.5 µM (top of the series)", "value": "inactive: -0.0716%"}]}
{"smiles": "CC[C@H](O)C(C[C@H](C)N(C)C)(c1ccccc1)c1ccccc1", "values": [{"measurement": "activity, negative = inhibition", "setting": "[12]", "value": "inactive: 0.0404% [at 51.3 µM]"}]}
{"smiles": "CCN", "values": [{"measurement": "activity, negative = inhibition", "setting": "[4]; at 79.1 µM (top of the series)", "value": "inactive: -3.82%"}, {"measurement": "Potency", "setting": "[5]", "value": "inactive"}, {"measurement": "Potency", "setting": "[11]", "value": "inactive"}, {"measurement": "activation", "setting": "[8]; at 92.4 µM (top of the series)", "value": "inactive: -1.66%"}]}
{"smiles": "C[N+](C)(C)CC(=O)[O-]", "values": [{"measurement": "Potency", "setting": "[10]", "value": "inactive"}]}
{"smiles": "O=C1C2(Cl)C3(Cl)C4(Cl)C(Cl)(Cl)C5(Cl)C3(Cl)C1(Cl)C5(Cl)C24Cl", "note": "(stereo unspecified)", "values": [{"measurement": "activity change, negative = cytotoxicity", "setting": "[13]", "value": "inactive: -3.84%"}]}
{"smiles": "CCCCCCCCCCn1cc[n+](C)c1", "values": [{"measurement": "Potency", "setting": "[5]", "value": "active: 13.8 µM [inconclusive]"}, {"measurement": "activation", "setting": "[8]; at 92.4 µM (top of the series)", "value": "inactive: -11.1% [middle of 6 runs]"}]}
{"smiles": "CNC(C)(C)Cc1ccccc1", "values": [{"measurement": "activity, negative = inhibition", "setting": "[4]; at 32.6 µM (top of the series)", "value": "inactive: 7.77%"}, {"measurement": "Potency", "setting": "[5]", "value": "inactive"}, {"measurement": "activation", "setting": "[14]", "value": "inactive: -14.3%"}, {"measurement": "Potency", "setting": "[11]", "value": "inactive"}, {"measurement": "Potency", "setting": "[10]", "value": "inactive"}, {"measurement": "activation", "setting": "[8]; at 42.5 µM (top of the series)", "value": "inactive: 0.754%"}]}
{"smiles": "C[N+](C)(C)CC(=O)O", "values": [{"measurement": "Potency", "setting": "[10]", "value": "inactive"}]}
{"smiles": "CCC(N)Cc1c[nH]c2ccccc12", "note": "(stereo unspecified)", "values": [{"measurement": "activity, negative = inhibition", "setting": "[4]; at 69.4 µM (top of the series)", "value": "inactive: -7.2%"}, {"measurement": "activity, negative = inhibition", "setting": "[4]; at 79.1 µM (top of the series)", "value": "inactive: -1.86%"}, {"measurement": "Potency", "setting": "[5]", "value": "inactive"}]}
{"smiles": "CC(=O)[O-].[Tl+]", "values": [{"measurement": "Potency", "setting": "[15]", "value": "inactive"}]}
{"smiles": "CC(=O)[O-].CC(=O)[O-].[Co+2]", "values": [{"measurement": "Potency", "setting": "[15]", "value": "inactive"}]}
{"smiles": "CC(=O)[O-].CC(=O)[O-].[Hg+2]", "values": [{"measurement": "Potency", "setting": "[15]", "value": "active: 2430 nM"}]}
{"smiles": "O=[N+]([O-])[O-].[Tl+]", "values": [{"measurement": "Potency", "setting": "[15]", "value": "inactive"}]}
{"smiles": "CC(=O)O", "values": [{"measurement": "Potency", "setting": "[15]", "value": "inactive"}]}
{"smiles": "CC1(C)[C@H](C(=O)O[C@H](C#N)c2cccc(Oc3ccccc3)c2)[C@@H]1C=C(Br)Br", "values": [{"measurement": "Potency", "setting": "[15]", "value": "active: 8.99 µM and active: 4.86 µM"}]}
{"smiles": "C#C[C@]1(O)CC[C@H]2[C@@H]3CCC4=CC(=O)CC[C@]4(C)[C@H]3CC[C@@]21C", "values": [{"measurement": "Potency", "setting": "[15]", "value": "inactive"}]}
{"smiles": "CC(=O)[O-].CC(=O)[O-].O.O.O.[Pb+2]", "values": [{"measurement": "Potency", "setting": "[15]", "value": "inactive"}]}
{"smiles": "CN1CCN(C(=O)O[C@H]2c3nccnc3C(=O)N2c2ccc(Cl)cn2)CC1", "values": [{"measurement": "Potency", "setting": "[15]", "value": "inactive"}]}
{"smiles": "O=[N+]([O-])O.O=[N+]([O-])O.[Cd]", "values": [{"measurement": "Potency", "setting": "[15]", "value": "active: 433 nM"}]}
{"smiles": "CC(=O)[O-].CC(=O)[O-].O.O.[Cd+2]", "values": [{"measurement": "Potency", "setting": "[15]", "value": "active: 120 nM"}]}
